Test results from publication PMC9585589 (2022).

By UniProt entry, the sequences of proteins in these tests, tags left out.
UniProt P21554, whole entry: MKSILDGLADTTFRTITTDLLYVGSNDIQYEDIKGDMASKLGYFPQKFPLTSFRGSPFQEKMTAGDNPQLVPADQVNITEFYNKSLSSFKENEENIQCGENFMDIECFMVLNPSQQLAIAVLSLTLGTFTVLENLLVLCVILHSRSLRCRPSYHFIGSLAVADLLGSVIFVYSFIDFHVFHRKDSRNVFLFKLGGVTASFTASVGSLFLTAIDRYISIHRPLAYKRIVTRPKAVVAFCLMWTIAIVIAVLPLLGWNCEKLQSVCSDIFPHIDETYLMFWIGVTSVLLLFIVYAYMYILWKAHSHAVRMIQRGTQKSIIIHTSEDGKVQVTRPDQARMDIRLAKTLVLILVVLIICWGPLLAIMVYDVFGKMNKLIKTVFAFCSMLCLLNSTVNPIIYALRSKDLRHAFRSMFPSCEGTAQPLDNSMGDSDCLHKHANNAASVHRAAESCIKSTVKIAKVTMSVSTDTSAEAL

Target: human CB1 receptor (Homo sapiens, UniProt P21554)
Details: read-out: Ki (μM, 95% CI)

Phillyrin [Compound 17]
Ki: 62.8 µM
